From US6482815B1 (priority 1999, dated 2002) come the findings set out here.

For one data set, the system named is MOLT-3. As to the kind of experiment: MTT cytotoxicity assay, MOLT-3 cells. The following applies: read-out: MOLT-3 IC50, 24-36 hours incubation. The class given is cell-based, human.
A further data set has as its system BT20. Description: MTT cytotoxicity assay, BT20 breast tumor cells. Particulars: for IC50: read-out: BT20 IC50, 24-36 hours incubation.
The test system of a further data set is NALM-6. Description: MTT cytotoxicity assay, NALM-6 cells. The class given is cell-based, human. Particulars: read-out: NALM-6 IC50, 24-36 hours incubation.
For another data set, the system named is ALL1. As to the kind of experiment: MTT cytotoxicity assay, ALL1 cells. The class given is cell-based, human. Particulars: read-out: ALL1 IC50, 24-36 hours incubation.
The subject of another data set is RS4;11. Description: MTT cytotoxicity assay, RS4;11 cells. Format: cell-based, human. The following applies: read-out: RS4;11 IC50, 24-36 hours incubation.
The subject of data set [1] is leukemic cell lines (NALM-6, MOLT-3, ALL1, RS4;11). As to the kind of experiment: MTT cytotoxicity assay, all leukemic cell lines.

Consider “2,6-Dimethoxyl4[(4′-aminophenylazo)-phenyl arsenic acid]-1,3,5-triazine”, for which the IC50 in the data set with MOLT-3 stood at 50.4 µM; with BT20 it was 21.5 µM; in the data set with NALM-6, 64.8 µM; in the data set on ALL1 it was 29.1 µM; with RS4;11 it was 23.3 µM. Further, the “cytotoxic against the breast cancer cell line BT20 (in words)” value in the data set with BT20 is “cytotoxic”. For the same molecule, in data set [1], the “cytotoxic for all of the leukemic cell lines (in words)” value is “cytotoxic for all of the leukemic cell lines”.

As to `O=[As](O)(O)c1ccccc1Nc1ncnc2[nH]cnc12`, the IC50 in the data set with MOLT-3 is over 250 µM; in the data set with BT20, over 250 µM; in the data set on NALM-6 it was 30.8 µM; in the data set with ALL1, over 250 µM; with RS4;11 it was over 250 µM.
